Drawing on patent publication US10471120B2, “Peptidomimetic macrocycles and uses thereof” (AILERON THERAPEUTICS, INC., priority 2014, dated 2019), this text covers Kd for one substance.

pKd: −log10 of the molar value.

The assay has as its target T1, MDMX (Homo sapiens, UniProt O15151).
T1 sequence (O15151 1-490): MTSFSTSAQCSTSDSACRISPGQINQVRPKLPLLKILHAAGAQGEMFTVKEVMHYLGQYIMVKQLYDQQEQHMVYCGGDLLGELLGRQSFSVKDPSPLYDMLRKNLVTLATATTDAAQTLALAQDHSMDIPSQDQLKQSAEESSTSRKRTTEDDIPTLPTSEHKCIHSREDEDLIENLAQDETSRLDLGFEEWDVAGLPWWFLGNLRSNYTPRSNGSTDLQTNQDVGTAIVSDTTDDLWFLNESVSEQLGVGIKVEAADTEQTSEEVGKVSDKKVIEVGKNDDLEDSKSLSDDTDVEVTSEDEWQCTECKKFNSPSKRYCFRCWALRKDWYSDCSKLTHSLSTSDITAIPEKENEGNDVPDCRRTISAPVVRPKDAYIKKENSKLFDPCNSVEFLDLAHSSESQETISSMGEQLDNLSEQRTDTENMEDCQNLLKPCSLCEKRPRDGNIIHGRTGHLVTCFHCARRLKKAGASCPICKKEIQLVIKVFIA
Nature of the assay: Binding affinity study (Table 14).

As for “WT p53: wild type p53, comparator for binding to MDM2 and MDMX”, the pKd (in general, −log10 of the Kd, conventionally taken in molar units) is 6.32.
